# Data taken from paper PMC11236204 (PLOS Pathogens, 2024).
# Like-named read-outs stand apart in the source and are kept apart here.
# How the values were obtained:
# mouse cortical neurons = experiment: Relative survival of mouse cortical neurons
# Cxcl1, Ccl2 RNA = conditions: four hour stimulation
# [1] = tested on: Ifit2, Cxcl10, Tnfa, Cxcl1 RNA; experiment: ISG and inflammatory gene expression by qPCR, rat cortical neurons; assay type: cell-based; conditions: for Rel. Fold change Tnfa RNA: Fig 4G; for Rel. Fold change Tnfa RNA / Rel. Fold change Cxcl1 RNA / Rel. Fold change Cxcl10 RNA: vehicle = 1; for Rel. Fold change Cxcl1 RNA: Fig 4H; for Rel. Fold change Cxcl10 RNA: Fig 4I
# rat cortical neurons = conditions: Fig 4A-B
# IFIT1, CXCL10, TNFα RNA = conditions: U2OS; 10 μg/mL; 4h or 24h
smiles,measurement,setting,value
CCCCCCCCCCCCCCCC(=O)N[C@@H](CSCC(COC(=O)CCCCCCCCCCCCCCC)OC(=O)CCCCCCCCCCCCCCC)C(=O)N[C@@H](CO)C(=O)N[C@@H](CCCCN)C(=O)N[C@@H](CCCCN)C(=O)N[C@@H](CCCCN)C(=O)N[C@@H](CCCCN)C(=O)O (stereo partly drawn) [Pam3CSK4],cytotoxicity,mouse cortical neurons,no cytotoxicity
same,Cxcl1 and Ccl2 expression,"Cxcl1, Ccl2 RNA; TLR2 KO mouse neurons",ablated
same,Cxcl1 and Ccl2 expression,"Cxcl1, Ccl2 RNA; wild type mouse neurons",induced expression
same,Rel. Fold change Tnfa RNA,[1]; replicate 1,220.074
same,Rel. Fold change Tnfa RNA,[1]; replicate 2,94.1012
same,Rel. Fold change Tnfa RNA,[1]; replicate 3,395.841
same,Rel. Fold change Cxcl1 RNA,[1]; replicate 1,688.291
same,Rel. Fold change Cxcl1 RNA,[1]; replicate 2,977.752
same,Rel. Fold change Cxcl1 RNA,[1]; replicate 3,842.13
same,Rel. Fold change Cxcl1 RNA,[1]; replicate 4,514.847
same,Rel. Fold change Cxcl10 RNA,[1]; replicate 1,1255.71
same,Rel. Fold change Cxcl10 RNA,[1]; replicate 2,913.999
same,Rel. Fold change Cxcl10 RNA,[1]; replicate 3,1326.05
same,Rel. Fold change Cxcl10 RNA,[1]; replicate 4,1156.06
same,"inflammatory gene transcription (Tnfa, Cxcl1, Cxcl10)","[1]; rat neurons, 10μg/mL for 4h",induced inflammatory gene transcription
same,induction of Ifit2,"[1]; rat neurons, 10μg/mL, 4h or 24h",no induction
same,Avg. Log2 Fold change / vehicle,rat cortical neurons; gene Abcb1b,2.88
same,Avg. Log2 Fold change / vehicle,rat cortical neurons; gene Angptl4,2.14
same,Avg. Log2 Fold change / vehicle,rat cortical neurons; gene C1s,0.86
same,Avg. Log2 Fold change / vehicle,rat cortical neurons; gene C3,2.64
same,Avg. Log2 Fold change / vehicle,rat cortical neurons; gene Ccl2,6.45
same,Avg. Log2 Fold change / vehicle,rat cortical neurons; gene Ccl7,4.1
same,Avg. Log2 Fold change / vehicle,rat cortical neurons; gene Ccl20,3.54
same,Avg. Log2 Fold change / vehicle,rat cortical neurons; gene Cd44,2.32
same,Avg. Log2 Fold change / vehicle,rat cortical neurons; gene Cd83,2.1
same,Avg. Log2 Fold change / vehicle,rat cortical neurons; gene Cdkn2b,1.64
same,Avg. Log2 Fold change / vehicle,rat cortical neurons; gene Cebpd,3.31
same,Avg. Log2 Fold change / vehicle,rat cortical neurons; gene Csf1,2.93
same,Avg. Log2 Fold change / vehicle,rat cortical neurons; gene Cxcl1,6.42
same,Avg. Log2 Fold change / vehicle,rat cortical neurons; gene Cxcl9,0.78
same,Avg. Log2 Fold change / vehicle,rat cortical neurons; gene Cxcl10,5.14
same,Avg. Log2 Fold change / vehicle,rat cortical neurons; gene Fam129a,3.12
same,Avg. Log2 Fold change / vehicle,rat cortical neurons; gene Gadd45b,1.39
same,Avg. Log2 Fold change / vehicle,rat cortical neurons; gene Gbp2,3.21
same,Avg. Log2 Fold change / vehicle,rat cortical neurons; gene Gbp5,3.92
same,Avg. Log2 Fold change / vehicle,rat cortical neurons; gene Has2,2.88
same,Avg. Log2 Fold change / vehicle,rat cortical neurons; gene Herc6,1.66
same,Avg. Log2 Fold change / vehicle,rat cortical neurons; gene Icam1,4.13
same,Avg. Log2 Fold change / vehicle,rat cortical neurons; gene Ifih1,1.51
same,Avg. Log2 Fold change / vehicle,rat cortical neurons; gene Irf1,1.24
same,Avg. Log2 Fold change / vehicle,rat cortical neurons; gene Irgm,1.31
same,Avg. Log2 Fold change / vehicle,rat cortical neurons; gene Lcn2,4.7
same,Avg. Log2 Fold change / vehicle,rat cortical neurons; gene Lrrc38,1.16
same,Avg. Log2 Fold change / vehicle,rat cortical neurons; gene Mpa2l,2.98
same,Avg. Log2 Fold change / vehicle,rat cortical neurons; gene Nfkb2,2.42
same,Avg. Log2 Fold change / vehicle,rat cortical neurons; gene Nfkbiz,2.34
same,Avg. Log2 Fold change / vehicle,rat cortical neurons; gene Parp9,0.99
same,Avg. Log2 Fold change / vehicle,rat cortical neurons; gene Parp14,1.07
same,Avg. Log2 Fold change / vehicle,rat cortical neurons; gene Ptrf,1.56
same,Avg. Log2 Fold change / vehicle,rat cortical neurons; gene RGD1309362,1.04
same,Avg. Log2 Fold change / vehicle,rat cortical neurons; gene RT1-CE7,1.17
same,Avg. Log2 Fold change / vehicle,rat cortical neurons; gene Rab32,1.86
same,Avg. Log2 Fold change / vehicle,rat cortical neurons; gene Rassf4,2.75
same,Avg. Log2 Fold change / vehicle,rat cortical neurons; gene Relb,1.71
same,Avg. Log2 Fold change / vehicle,rat cortical neurons; gene Rhbdl3,1.18
same,Avg. Log2 Fold change / vehicle,rat cortical neurons; gene Ripk2,2.03
same,Avg. Log2 Fold change / vehicle,rat cortical neurons; gene Rnf213,1.01
same,Avg. Log2 Fold change / vehicle,rat cortical neurons; gene Rsad2,2.71
same,Avg. Log2 Fold change / vehicle,rat cortical neurons; gene S1pr3,1.81
same,Avg. Log2 Fold change / vehicle,rat cortical neurons; gene Tnfaip2,3.01
same,Avg. Log2 Fold change / vehicle,rat cortical neurons; gene Zc3h12a,3.15
same,Avg. Log2 Fold change / vehicle,rat cortical neurons; gene Zc3hav1,1.17
same,induction of IFIT1,"IFIT1, CXCL10, TNFα RNA",no induction
